Experimental data from patent US20070219159A1, “CYCLODEXTRIN COMPOSITIONS AND METHODS OF TREATING VIRAL INFECTIONS” (priority 2002, published 2007).

How the values were obtained:
HSV-1 = conditions: in general 1000-fold less drug than Examples 1-6 and 10
HSV-2 = conditions: in general 1000-fold less drug than Examples 1-6 and 10

Substance | SI = CC50/EC50 (HSV-1) | SI = CC50/EC50 (HSV-2) | SI = CC50/EC50 (VZV) | SI = CC50/EC50 (EBV) | SI = CC50/EC50 (HCMV) | SI = CC50/EC50 (MCMV) | SI = CC50/EC50 (HHV-6) | SI = CC50/EC50 (HHV-7) | SI = CC50/EC50 (RSV) | SI = CC50/EC50 (PIV) | SI = CC50/EC50 (MV) | SI = CC50/EC50 (HRV) | SI = CC50/EC50 (Ad) | SI = CC50/EC50 (Resp syncytial) | SI = CC50/EC50 (Rhino) | SI = CC50/EC50 (Measles) | SI = CC50/EC50 (Punta Toro) | SI = CC50/EC50 (Pichinde)
hydroxypropyl γ-cyclodextrin [HPGCD] | 0 | 0 | 0 | > 625 | 0 | 0 | 0 | 0 | 0 | 0 | 0 | 0 | 0 | 0 | 0 | 0 | 0 | 0
methyl-β-cyclodextrin [MBCD] | 0 | 0 | 0 | 0 | 0 | 0 | 0 | 0 | 0 | 0 |  | 0 | 0 | 0 | 0 | 0 |  | 
